## Binding of CDR-mutated scFvs to a peptide of the spike HR2 region

All variants were tested on one target, the spike HR2 peptide PDVDLGDISGINAS (SARS-CoV-2).

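Phage display of a naive human antibody library on the peptide gave the parent. This is the validation round: designs drawn from the data on random variants, tested in the same kind of assay. Their group label is 14L_GP_Gibbs (GP: Gaussian process model; Gibbs: Gibbs sampling; a sequence that several methods proposed may carry one label only). Affinity was read by AlphaSeq, a pooled yeast mating assay with surface-displayed partners. Binding brings cells together so that they mate, and sequencing counts the barcode pairs among the diploids. Scores were corrected for input abundance and mapped to Kd with protein pairs of known affinity run in the same pool. Mating was done six times.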

Ab-14 is the parent antibody, in scFv form: VH, then the linker GGGGSGGGGSGGGGS, then VL. The heavy chain is unchanged in all variants.
VH: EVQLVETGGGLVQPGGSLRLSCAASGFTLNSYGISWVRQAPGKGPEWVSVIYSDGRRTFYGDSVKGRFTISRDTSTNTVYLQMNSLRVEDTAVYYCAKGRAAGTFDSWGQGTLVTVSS
VL: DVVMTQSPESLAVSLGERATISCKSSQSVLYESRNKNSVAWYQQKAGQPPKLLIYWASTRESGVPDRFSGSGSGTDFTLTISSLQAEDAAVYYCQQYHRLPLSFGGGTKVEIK

Each variant is given by its three light chain CDRs, as the data file delimits them; those of the parent are KSSQSVLYESRNKNSVA, WASTRES, QQYHRLPLS. Affinities are written as log10 Kd with Kd in nM; a lower number is a better binder. Where no diploid with the target was found in that replicate, the entry reads "nd": below detection, most likely a poor binder, though not proof of it. Nonspecific signal, from three strains lacking the peptide, appeared in 4% of pairings of all light chain designs, centred on 2.64 (5% of these signals below 1.59); values are not corrected for it. Also given: how often the same scFv was detected with the empty control strains, with their mean in brackets. The authors averaged sequences with at least three values out of six and counted those with two or fewer as poor binders. The range of this assay differs from that of the first round, and the authors advise against merging the two. The parent sequence was in this pool as ten entries: three were never detected, three once, and four in most replicates, with averages from 0.34 to 2.37.

CDR-L1,CDR-L2,CDR-L3,"log10 Kd, replicates",empty controls
KVSQSVEYEDRNKNSVA,MASQRCS,QQYHRLPLS,0.68 0.57 0.43 0.40 0.74 0.93,0/18
KVSPSMLYEQRNKNSVA,SASTREN,QSYHRLPLS,0.05 0.24 0.34 -0.18 -0.06 0.32,2/18 (2.61)
KLMEQAEYESRNKNSVA,QASTREM,QQYHRLPLS,0.25 -0.33 -0.33 -0.36 -0.05 -0.02,1/18 (3.56)
KLSQQDWYEERNCNSVA,QASTREQ,QQYHRLPLS,-0.06 -0.02 -0.29 -0.18 -0.23 0.08,0/18
KSGQQFLQEQRNKNSVA,DASLRES,QQYHRLPLS,0.59 -0.14 -0.62 0.79 0.04 -0.07,0/18
KWSCSQLYDDANKNSVA,NASTRMM,QQYHRLPLS,0.30 0.19 0.03 -0.10 -0.04 0.01,0/18
KVSMQVLMSSRNKNSVA,QANTRES,QQYHRLPLS,0.82 0.37 0.95 0.17 0.58 0.10,1/18 (2.77)
KLSFSELYESRNKNSVA,EASCREE,QQYHRLPLS,0.19 0.04 -0.24 -0.06 -0.03 0.18,2/18 (2.62)
KLSQSDWMESRNVNNVA,EASQRES,QQYHRLPLS,0.45 0.30 0.33 -0.23 -0.11 0.37,2/18 (2.14)
KLSQSYGYESTNSNSVA,DASTRES,QQYHRLPLS,0.18 -0.24 0.11 0.23 0.09 -0.11,0/18
KVDISQLYESRNKNSVA,NASLRCS,QQYHRLPLS,0.20 0.08 0.07 0.09 -0.09 0.24,3/18 (2.39)
KLSQLGLYEQRNCNSVA,SASTRCS,QQYHRLPLF,0.14 -0.08 -0.06 -0.10 0.18 0.19,3/18 (1.95)
KLSQSVWVLERNKNSVA,NASTRES,QQYHRLPLS,0.33 0.23 0.32 0.03 0.08 0.32,1/18 (3.39)
KWSQSWLMESLNSASVA,HASQRES,QQYHRLPLS,nd 1.59 0.56 1.23 1.98 0.80,0/18
KIQQSVYYESLNKNSVA,HASTRLQ,QQYHRLPLS,1.41 0.34 1.46 1.07 1.44 0.99,0/18
KVMQSVLYEDRNVNNVA,NGSTRCS,QQYHRLPLS,-0.11 -0.31 -0.43 -0.37 -0.42 -0.38,0/18
KVQQMWLYESRNCNSVA,NASQREE,QQYHRLPLS,0.77 0.51 0.58 0.64 0.57 0.73,0/18
KCAQGWGYESRNANNVA,NASQRES,QQYHRLPLS,-0.36 -0.37 -0.48 -0.51 -0.60 -0.39,0/18
KSSQSVLYEDKNVNSVA,DASQRCS,QQYHRLPLS,0.74 0.54 0.77 0.73 0.45 0.70,0/18
KMSQSVPYEERNLNNVA,DGSTRES,QQYHRLPLS,-0.19 -0.30 -0.22 -0.42 -0.38 -0.33,0/18
KLSQSVEQLERNKNSVA,HASQREV,QQYHRLPLS,-0.06 -0.21 -0.23 -0.42 -0.03 0.14,1/18 (1.89)
KLQQSWEYESRNKNNVA,MGSQRED,QQYHRLPLS,1.06 1.72 1.16 0.39 0.80 0.91,0/18
KLQWLWLYESRNKNSVA,NASTRES,QQYHRLPLS,0.52 0.33 0.50 -0.15 0.15 0.58,1/18 (2.77)
KFQQMVMQEDRNKNSVA,QASTRLQ,QQYHRLPLS,-0.05 -0.17 -0.31 -0.31 -0.35 0.14,0/18
KVSQSVCYEDRNKNNVA,NASDRMS,QQYHRLPLS,0.63 0.35 0.49 0.77 0.25 0.31,2/18 (1.84)
KMSQSMGYGERNKNSVA,NASQRMS,QQYHRLPLS,0.02 -0.11 -0.15 -0.35 -0.19 -0.04,2/18 (3.34)
KMSPSELYQDRNKNAVA,QASQRES,QQYHRLPLS,-0.19 -0.34 -0.37 -0.40 -0.33 -0.18,1/18 (2.32)
KLSWSDLYESRNCNSVA,NASTREV,QQYHRLPLS,0.42 0.21 0.10 0.12 0.22 0.34,2/18 (3.42)
KFSQSALYEERMKNSVA,DASQRLS,QQYHRLPLS,0.06 0.03 -0.05 -0.18 -0.29 -0.03,1/18 (1.91)
KLSQSVEGEEWNKNSVA,NASVREV,QQYHRLPLS,0.73 0.93 0.78 0.91 0.73 0.90,4/18 (3.80)
KLDMYDWLESRNKNSVA,QASQREW,QQYHRLPLS,0.25 0.05 0.05 -0.07 0.19 0.16,3/18 (2.80)
KISQSHPYEDRNFNSVA,NASYRCS,QQYHRLPLS,1.37 0.86 1.14 1.07 1.01 1.43,0/18
KLSQSVEYESRDKNSVA,DAQTRES,QQYHRLPLS,-0.11 -0.12 0.11 -0.21 0.11 -0.18,0/18
KVSIEVWMGDRNKNSVA,DASTRES,QQYHRLPLS,0.22 0.35 -0.03 -0.19 0.09 0.23,1/18 (2.86)
KFSYGNLYEDRNQNSVA,NASQREQ,QQYHRLPLS,0.27 0.16 0.14 -0.06 0.20 0.29,2/18 (3.28)
KMSQSQEYESRNSNAVA,NASQRLQ,QQYHRLPLS,0.20 0.06 -0.21 0.01 -0.07 0.05,2/18 (2.98)
KLDQSVMLESRNKNSVA,EASTRMS,QDYHRLPLS,0.95 0.74 1.00 0.31 0.61 0.85,1/18 (2.13)
KLSQQNKYESRMMNSVA,NASQRES,QQYHRLPLS,0.03 0.28 0.03 0.10 0.42 0.16,1/18 (1.86)
KLSGEMEYESRNKNSVA,HASLRES,QDYHRLPLQ,0.27 0.04 0.18 0.19 0.05 0.17,0/18
KLSQSVEVLSRNDNSVA,EASTREM,QQYHRLPLS,0.40 0.45 -0.51 0.42 0.15 0.49,0/18
HLSQSQDYESRNKNSVA,NASQRLQ,QQYHRLPLS,-0.10 0.08 -0.18 -0.32 -0.36 -0.23,2/18 (2.22)
KSEDGVDDESRNDNQVA,NASTRLS,QQYHRLPLS,0.77 0.35 0.40 0.23 0.38 0.67,0/18
KLQQGMDYESRNDASVA,AASTRES,QQYHRLPLS,0.89 0.56 0.45 0.56 0.48 0.51,0/18
KSAYSELGESANKNSVA,SANTRES,QQYHRLPLS,-0.15 2.31 0.66 0.83 1.93 0.55,0/18
KSSGSVMMLSRNPNSVA,EATTRES,QQYHRLPLS,0.36 -0.48 0.21 -0.32 -0.38 0.02,2/18 (2.00)
KSEDGVDDEERNDNSVA,WASTRES,QQYHRLPLS,nd 2.12 1.58 nd 2.02 nd,1/18 (2.21)
KSSISVEYQERLSNSVA,QASQRES,QQYHRLPLS,0.46 -0.28 1.22 -0.06 0.06 -0.44,0/18
KLSMSHGYESRMKNSVA,HASQREE,QQYHRLPLS,0.40 0.16 0.21 -0.13 0.34 0.46,3/18 (2.51)

For reference, 6 entries of the list once more:

CDR-L1,CDR-L2,CDR-L3,"log10 Kd, replicates",empty controls
KMSQSVPYEERNLNNVA,DGSTRES,QQYHRLPLS,-0.19 -0.30 -0.22 -0.42 -0.38 -0.33,0/18
KWSQSWLMESLNSASVA,HASQRES,QQYHRLPLS,nd 1.59 0.56 1.23 1.98 0.80,0/18
KFQQMVMQEDRNKNSVA,QASTRLQ,QQYHRLPLS,-0.05 -0.17 -0.31 -0.31 -0.35 0.14,0/18
KVSIEVWMGDRNKNSVA,DASTRES,QQYHRLPLS,0.22 0.35 -0.03 -0.19 0.09 0.23,1/18 (2.86)
KLSQSVEQLERNKNSVA,HASQREV,QQYHRLPLS,-0.06 -0.21 -0.23 -0.42 -0.03 0.14,1/18 (1.89)
KSSQSVLYEDKNVNSVA,DASQRCS,QQYHRLPLS,0.74 0.54 0.77 0.73 0.45 0.70,0/18

Data: MIT Lincoln Laboratory AlphaSeq set, Li et al. 2023, doi:10.1038/s41467-023-39022-2, as distributed in FLAb.